Earlier results in patent US5856318A (priority 1997, dated 1999).

System: kappa opioid receptors
Conditions: cited from earlier work

SMILES: CN(C(=O)Cc1ccc(Cl)c(Cl)c1)[C@@H]1CCCC[C@H]1N1CCCC1 (relative stereo)
- kappa opioid receptor ligand activity: highly selective ligands for kappa opioid receptors
